Ratio IC50 data for nine molecules are collected here from ChEMBL document CHEMBL4813913, “In vitro identification of imidazo[1,2-a]pyrazine-based antileishmanial agents and evaluation of L. major casein kinase 1 inhibition” (Eur J Med Chem, 2021).

One experiment can be described thus: Selectivity index, ratio of IC50 for recombinant human CK1 epsilon expressed in baculovirus infected Sf9 cells to IC50 for recombinant Leishmania major CK1.2 expressed in bacterial expression system by ADP-Glo assay.
As for `CN(C)c1nccn2c(-c3ccc4[nH]ncc4c3)c(-c3ccc(F)cc3)nc12`, the Ratio IC50 is 1.1.
For the molecule `CN(C)c1nccn2c(-c3ccncc3)c(-c3ccc(F)cc3)nc12`, the Ratio IC50 was 1.3.

A further experiment in a line: Selectivity index, ratio of IC50 for recombinant human CK1 epsilon expressed in baculovirus infected Sf9 cells to IC50 for recombinant Leishmania major CK1.2 expressed in bacterial expression system by radiometric assay.
For `Nc1nccc(-c2c(-c3ccc(F)cc3)nc3c(N)nccn23)n1`, the Ratio IC50 amounted to 5.
Same read-out and setting: for `CN(C)c1nccn2c(-c3ccnc(N)n3)c(-c3ccccc3)nc12` the value was 30.
For `CSc1nccc(-c2c(-c3ccc(F)cc3)nc3c(N)nccn23)n1`, the Ratio IC50 came to 0.3.
Still for that read-out and setting: the value for `CSc1nccc(-c2c(-c3ccccc3)nc3c(N(C)C)nccn23)n1` was over 2.8; that for `CSc1nccc(-c2c(-c3ccccc3)nc3c(Cl)nccn23)n1` was 0.6.
Same read-out and setting: the value for `CSc1nccc(-c2c(-c3ccc(F)cc3)nc3c(N(C)C)nccn23)n1` was over 10.
On to `CN(C)c1nccn2c(-c3ccnc(N)n3)c(-c3ccc(F)cc3)nc12`, for which the Ratio IC50 stood at 3.8.
